This assay deals with Acetylcholinesterase (Electrophorus electricus, UniProt O42275).

`Cc1c(OC(=O)N(C)C)c(=O)ccn1-c1ccc(OC(=O)N(C)C)cc1` gave an IC50 of 252 µM.
